Marks after values point to notes of the source that are not given here.
test system: male ICR mice; assay: MES (Maximal Electroshock Seizure) test in mice; settings: injection amount 50 mg/kg, 4 mice

SMILES	MES test (po) Protection %
C[C@H](OC(N)=O)[C@@H](O)c1ccccc1F [Compound 63, 1-(2-fluorophenyl)-(S)-1-hydroxypropyl-(S)-2-carbamate]	50^a (100%)
C[C@H](OC(N)=O)[C@@H](O)c1ccccc1I [Compound 65, 1-(2-iodophenyl)-(S)-1-hydroxypropyl-(S)-2-carbamate]	50^a (100%)

same assay, conditions: injection amount 100 mg/kg, 4 mice

SMILES	MES test (po) Protection %
CCCC[C@H](OC(N)=O)[C@@H](O)c1c(Cl)cccc1Cl	100^a (75%)
CCCC[C@H](OC(N)=O)[C@@H](O)c1ccc(Cl)cc1Cl	100^a (25%)
CCCC[C@H](OC(N)=O)[C@@H](O)c1ccccc1Cl	100^a (75%)
CCC(OC(N)=O)C(O)c1ccccc1Cl (racemic) [Compound 8, 1-(2-chlorophenyl)-1-hydroxybutyl-2-carbamate]	100^a (100%)
CC[C@H](OC(N)=O)[C@@H](O)c1ccccc1I [Compound 67, 1-(2-iodophenyl)-(S)-1-hydroxybutyl-(S)-2-carbamate]	100^a (100%)

same assay, conditions: injection amount 200 mg/kg, 4 mice

SMILES	MES test (po) Protection %
CCCC[C@@H](OC(N)=O)[C@H](O)c1ccccc1Cl	200^a (75%)
CCCCC(OC(N)=O)C(O)c1ccccc1Cl (racemic)	200^a (100%)

Source: US20130184338A1, “PHENYLPROPYL CARBAMATE DERIVATIVES FOR USE IN PREVENTING OR TREATING MULTIPLE SCLEROSIS” (Bio-Pharm Solutions Co., Ltd., priority 2011, published 2013)
